Biological target: SHP2 full-length protein (Homo sapiens, UniProt Q06124)
Experiment: SHP2 allosteric inhibition experiment (Homogeneous Full Length SHP-2 Assay Kit)
Conditions: read-out: IC50 Values of Compounds Inhibiting SHP2; full-length SHP2 0.06 nM with SHP-2 activating peptide; ten-point, 1 μM to 0.05 nM
Text: The following further describes and explains the present invention in combination with test examples, but these examples are not meant to limit the scope of the present invention. SHP2 allosteric inhibition experiment
The purpose of this test is to measure the ability of the compounds to inhibit the allosteric activity of the SHP2 full-length protein. Experimental equipment: a centrifuge (5810R) is purchased from Eppendorf Company; pipettes are purchased from Eppendorf Company and Rainin Company, and microplate readers are purchased from BioTek Company of the United States, SynergyH1 multimode microplate reader.
Experimental method: Homogeneous Full Length SHP-2 Assay Kit (BPS Bioscience, #79330) is used to detect SHP2 activity in vitro. First, add 18 μL of Master Mix to 96-well low-adsorption microplate (NUNC, #267342), that is, 0.5 μL of SHP-2 activating Peptide and 5 mM DTT are included in the reaction buffer with a final concentration of 1×. […]
After incubation, add 25 μL of Substrate solution to each well, containing Substrate with a final concentration of 10 μM and DTT with a final concentration of 5 mM, and after centrifugation, continue to incubate at room temperature for 30 minutes. After the reaction, set the excitation wavelength at 340 nm, the emission wavelength at 455 nm, and the gain value to 75 on the Synergy H1 microplate reader (Biotek) for reading. […]

By UniProt entry, the sequences of proteins in these tests, tags left out.
UniProt Q06124, whole entry: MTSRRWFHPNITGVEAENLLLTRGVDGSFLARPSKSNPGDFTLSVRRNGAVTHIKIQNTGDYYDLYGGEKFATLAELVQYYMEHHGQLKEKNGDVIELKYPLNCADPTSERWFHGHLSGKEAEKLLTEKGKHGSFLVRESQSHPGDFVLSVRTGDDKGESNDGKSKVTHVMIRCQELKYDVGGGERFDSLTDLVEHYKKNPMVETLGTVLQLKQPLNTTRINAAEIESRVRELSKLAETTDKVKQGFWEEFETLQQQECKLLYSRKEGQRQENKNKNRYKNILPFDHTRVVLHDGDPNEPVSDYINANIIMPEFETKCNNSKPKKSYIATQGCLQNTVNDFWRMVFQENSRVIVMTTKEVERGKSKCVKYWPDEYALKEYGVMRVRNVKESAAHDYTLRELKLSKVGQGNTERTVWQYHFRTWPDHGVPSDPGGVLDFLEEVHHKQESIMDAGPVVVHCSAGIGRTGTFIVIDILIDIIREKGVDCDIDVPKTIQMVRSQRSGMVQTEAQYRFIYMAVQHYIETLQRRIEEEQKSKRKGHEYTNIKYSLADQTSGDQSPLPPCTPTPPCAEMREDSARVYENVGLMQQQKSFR

- IC50: 10 to 100 nM
SMILES: C[C@@H]1OCC2(CCN(c3cnc4c(=O)n(-c5cccc(Cl)c5Cl)c(=O)[nH]c4n3)CC2)[C@@H]1N
